Series [1] deals with T1, Recombinant human Factor B catalytic domain (Homo sapiens (Human), UniProt P00751).
The target in series [2] is T1, Recombinant human Factor B catalytic domain. The series is described as follows: Factor B binding assay by TR-FRET. The following applies: read-out: Factor B TR-FRET IC50; 10 nM his-tagged Factor B catalytic domain, 100 nM tracer, 1 h.

Amino acid sequences for entries named in this document (tags omitted). Residues count along the entry.
UniProt P00751, 470-764 limits assumed: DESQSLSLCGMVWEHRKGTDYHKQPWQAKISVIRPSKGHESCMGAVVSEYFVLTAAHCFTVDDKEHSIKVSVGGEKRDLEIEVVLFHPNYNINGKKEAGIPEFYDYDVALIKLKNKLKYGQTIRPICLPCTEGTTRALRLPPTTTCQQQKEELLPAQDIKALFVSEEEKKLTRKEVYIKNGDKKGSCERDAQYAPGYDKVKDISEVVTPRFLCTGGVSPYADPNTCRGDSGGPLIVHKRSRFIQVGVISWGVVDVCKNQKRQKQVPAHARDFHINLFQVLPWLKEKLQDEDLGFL

We go through three compounds from patent US20250243186A1, “PIPERIDINYL INDOLE DERIVATIVES, PREPARATION METHODS AND MEDICINAL USES THEREOF” (HANSOH BIO LLC, priority 2021, published 2025).

Usually half-life stands for how long it takes for the measured level to halve. As a reminder, the IC50 is the concentration at which inhibition is half-maximal.

Consider `COc1cc(C)c2[nH]ccc2c1CN1CCC2(C[C@H]1c1ccc(C(=O)O)cc1C(F)F)CC(F)(F)C2`, for which the half-life in series [1] was 53.5 min.

On to `COc1cc(C)c2[nH]ccc2c1CN1CCC2(CC(F)C2)CC1c1ccc(C(=O)O)cc1` (single isomer, unassigned) [40 (Isomer 1)], for which the half-inhibitory concentration (IC50) in series [2] was found to be 1.8 nM.

For `COc1cc(C)c2[nH]ccc2c1CN1CCC2(CC(F)C2)CC1c1ccc(C(=O)O)cc1` (single isomer, unassigned) [40 (Isomer 2)], in series [2], the IC50 stood at 3 nM.
